# OPERA 2.9 data: melting point values

Melting points are in °C. The databases behind each value are named after "via".

CCOc1cc(C#N)ccc1O has mp 76 °C (via OCHEM).
O=C(O)COc1cccc(C(F)(F)F)c1 has mp 86 °C (via OCHEM).
C[C@]12CCC(=O)C=C1CC[C@@H]1[C@@H]2CC[C@@]2(C)[C@H]1CC[C@]2(O)[C@H](O)CO has mp 190 °C (via OCHEM).
O=C(O)CNc1ccc(Cl)cc1 has mp 143 °C (via OCHEM).
CCNc1ccc(Br)cn1 has mp 68 °C (via OCHEM).
NCCCc1nc2ccccc2[nH]1 has mp 211 °C (via OCHEM).
O=C(O)c1csc(-c2ccc(F)cc2)n1 has mp 197 °C (via OCHEM).
Nc1ccccc1S(=O)(=O)Nc1ccccc1 has mp 119 °C (via OCHEM).
CC(C)c1cc(N)on1 has mp 34 °C (via OCHEM).
Nc1nc(-c2cc(Cl)ccc2Cl)cs1 has mp 163 °C (via OCHEM).
O=C(O)CCc1nc2ccccc2o1 has mp 111 °C (via OCHEM).
N#CC(=O)c1cccc(Cl)c1Cl has mp 64 °C (via eChemPortal).
O=[N+]([O-])c1ccc2c(c1)CCCN2 has mp 156 °C (via OCHEM).
COc1ccc2nc(C)cc(Cl)c2c1 has mp 100 °C (via OCHEM).
COc1ccc(S(N)(=O)=O)cc1NC(C)=O has mp 218 °C (via OCHEM).
NC(=O)CSc1ccccc1N has mp 114 °C (via OCHEM).
O=C(CCl)Nc1ccccc1Sc1ccccc1 has mp 160 °C (via OCHEM).
CC(C)c1ccc(C(=O)CCl)cc1 has mp 45 °C (via OCHEM).
CSc1ccc(C)c(C(=O)O)c1 has mp 129 °C (via OCHEM).
O=C(Nc1ccc(O)c(C(=O)O)c1)c1cc(Cl)cc(Cl)c1 has mp 289 °C (via OCHEM).
NC(=O)Nc1cccc(N)c1 has mp 126 °C (via OCHEM).
O=C(O)COc1ccc(Cl)cc1Br has mp 124 °C (via OCHEM).
O=C(O)CCNC(=O)C12CC3CC(CC(C3)C1)C2 has mp 186 °C (via OCHEM).
OC1CNc2c(ccc3ccccc23)C1 (configuration not stated) has mp 145 °C (via OCHEM).
CCn1c(-c2ccncc2)n[nH]c1=S has mp 141 °C (via OCHEM).
N=C(CCN1CCCCC1)NO has mp 138 °C (via OCHEM).
COc1ccc(C(CN)C2(O)CCCCC2)cc1.Cl (configuration not stated) has mp 176.7 °C (via eChemPortal).
O=Cc1cn(-c2ccccc2)nc1-c1cccs1 has mp 91 °C (via OCHEM).
O=C(O)CCN1C(=O)CCC1=O has mp 132 °C (via OCHEM).
Cc1cccc(NC(=S)NN)c1C has mp 171 °C (via OCHEM).
Nc1nc(-c2ccco2)cs1 has mp 110 °C (via OCHEM).
Cc1ccc(-n2cnnn2)cc1N has mp 172 °C (via OCHEM).
O=C(Nc1ccccc1C(=O)O)c1ccccc1Br has mp 202 °C (via OCHEM).
O=C(O)c1ccc2[nH]c(=O)[nH]c2c1 has mp 374 °C (via OCHEM).
NNC(=O)c1c[nH]c2ccccc12 has mp 230 °C (via OCHEM).
CCOC(=O)c1sc(N)c(C#N)c1C has mp 213 °C (via OCHEM).
O=C(Nc1ccc(C(=O)O)c(O)c1)c1cc(Cl)cc(Cl)c1 has mp 269 °C (via OCHEM).
c1ccc2c3c(ccc2c1)-c1c(ccc2ccccc12)C3 has mp 174 °C (via OCHEM).
N#CCC(=O)c1ccc2c(c1)OCO2 has mp 135 °C (via OCHEM).
O=S(=O)(Cl)c1ccccc1-c1ccccc1 has mp 95 °C (via OCHEM).
CCOC(=O)c1c(C)[nH]c(C(=O)O)c1C has mp 205 °C (via OCHEM).
Cn1cnnc1-c1ccc(N)cc1 has mp 257 °C (via OCHEM).
CS(=O)(=O)Nc1nc(CC(=O)O)cs1 has mp 180 °C (via OCHEM).
OC[C@@]1(O)CO[C@](O)(CO)CO1 has mp 78.5 °C (via OCHEM).
Cn1cc(C(=O)O)ccc1=O has mp 237 °C (via OCHEM).

Extract of 3 entries:

structure (SMILES)	mp (°C)	via
NC(=O)Nc1cccc(N)c1	126	OCHEM
O=C(O)COc1cccc(C(F)(F)F)c1	86	OCHEM
N=C(CCN1CCCCC1)NO	138	OCHEM

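These are experimental values that the OPERA curators gathered from public databases to train and test their QSAR models. A listed value is a point estimate from one report or more. Conditions of the individual experiments are not part of the data. A value may pool stereoisomers or salt forms, and the file does not say which form was measured. Unmarked limits or estimates from the upstream databases cannot be ruled out.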

Values as listed in the OPERA 2.9 repository of K. Mansouri.